# Yeast mating assay 1: variants of the scFv Ab-14

Source: Engelhart et al. 2022 (doi:10.1038/s41597-022-01779-4), MIT Lincoln Laboratory and A-Alpha Bio; data file from the FLAb repository.

Antigen: PDVDLGDISGINAS, a 14-residue peptide of the SARS-CoV-2 spike HR2 region.

Each scFv is VH, a (GGGGS)3 linker, VL, as in the parent Ab-14, and differs from it in the CDRs of the heavy chain only.
VH: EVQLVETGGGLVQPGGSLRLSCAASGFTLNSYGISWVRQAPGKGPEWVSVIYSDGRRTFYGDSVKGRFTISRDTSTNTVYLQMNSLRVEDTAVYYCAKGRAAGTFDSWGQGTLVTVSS
VL: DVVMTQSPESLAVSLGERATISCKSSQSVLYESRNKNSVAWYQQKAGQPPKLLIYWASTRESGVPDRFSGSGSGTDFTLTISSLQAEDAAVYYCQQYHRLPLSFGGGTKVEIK

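The starting antibody came from a phage panning campaign against this peptide. Variants in AAYL49 differ from the parent at up to three CDR positions; double and triple changes were sampled at random. AlphaSeq pools MATa yeast showing the antibodies with MATalpha yeast showing the peptide. After mating in shaken culture at 30 °C for 16 h, diploids were selected and their barcode pairs sequenced. Read counts were normalised to the haploid input and turned into Kd by a linear fit to BCL2-family pairs of known affinity, for each replicate. Mating was done three times.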

Substitutions are numbered in sequence along the VH above, starting at 1 (not Kabat). The read-out is the apparent dissociation constant on a log10 scale (nM): the lower, the stronger. Replicates are averaged; those with no signal do not enter the mean. "ND" means that the variant was in the library but no mating with the target was seen in that replicate; the authors take this as a sign of poor binding, and no number exists.

{"changes": "I51V/R57K/T104C", "replicates, log10 nM": "ND / ND / ND", "mean log10 Kd (nM)": "ND", "empty controls": "1/9 (2.54)"}
{"changes": "N30T/T58I/G61H", "replicates, log10 nM": "ND / ND / ND", "mean log10 Kd (nM)": "ND", "empty controls": "1/9 (3.37)"}
{"changes": "S63R/R100V/A101C", "replicates, log10 nM": "1.27 / 1.35 / 1.28", "mean log10 Kd (nM)": "1.30", "empty controls": "0/9"}
{"changes": "S31Q/F59I/F105T", "replicates, log10 nM": "1.18 / 1.23 / 1.21", "mean log10 Kd (nM)": "1.21", "empty controls": "1/9 (4.04)"}
{"changes": "G33C/R100L/D106R", "replicates, log10 nM": "ND / ND / ND", "mean log10 Kd (nM)": "ND", "empty controls": "1/9 (4.31)"}
{"changes": "S31F/G55P/R57G", "replicates, log10 nM": "ND / ND / ND", "mean log10 Kd (nM)": "ND", "empty controls": "1/9 (2.90)"}
{"changes": "G26H/R56D/V64I", "replicates, log10 nM": "ND / ND / ND", "mean log10 Kd (nM)": "ND", "empty controls": "0/9"}
{"changes": "V50H/G103T/T104A", "replicates, log10 nM": "ND / 4.38 / 4.08", "mean log10 Kd (nM)": "4.23", "empty controls": "2/9 (4.12)"}
{"changes": "G33H/V50G/R100L", "replicates, log10 nM": "ND / 3.18 / 4.39", "mean log10 Kd (nM)": "3.78", "empty controls": "3/9 (3.45)"}
{"changes": "I34C/D62S/T104G", "replicates, log10 nM": "ND / ND / 3.83", "mean log10 Kd (nM)": "3.83", "empty controls": "0/9"}
{"changes": "S31G/Y60M/R100M", "replicates, log10 nM": "ND / ND / ND", "mean log10 Kd (nM)": "ND", "empty controls": "1/9 (3.87)"}
{"changes": "S35G", "replicates, log10 nM": "ND / ND / ND", "mean log10 Kd (nM)": "ND", "empty controls": "0/9"}
{"changes": "I34A/V64R/G99N", "replicates, log10 nM": "ND / ND / 3.37", "mean log10 Kd (nM)": "3.37", "empty controls": "1/9 (3.47)"}
{"changes": "S35R/R57C/A102V", "replicates, log10 nM": "ND / ND / ND", "mean log10 Kd (nM)": "ND", "empty controls": "1/9 (4.39)"}
{"changes": "F59Q/T104G/D106L", "replicates, log10 nM": "1.03 / 1.08 / 1.01", "mean log10 Kd (nM)": "1.04", "empty controls": "2/9 (2.96)"}
{"changes": "Y52R/V64C/K65C", "replicates, log10 nM": "ND / ND / ND", "mean log10 Kd (nM)": "ND", "empty controls": "1/9 (3.03)"}
{"changes": "I51V/K65M/D106P", "replicates, log10 nM": "4.50 / 2.92 / ND", "mean log10 Kd (nM)": "3.71", "empty controls": "0/9"}
{"changes": "S63I/K65H/A102R", "replicates, log10 nM": "3.03 / 3.45 / ND", "mean log10 Kd (nM)": "3.24", "empty controls": "3/9 (3.60)"}
{"changes": "F27L/S31A/R56M", "replicates, log10 nM": "3.72 / 2.32 / 3.54", "mean log10 Kd (nM)": "3.19", "empty controls": "0/9"}
{"changes": "S53M/S63D", "replicates, log10 nM": "ND / ND / ND", "mean log10 Kd (nM)": "ND", "empty controls": "1/9 (5.17)"}
{"changes": "G26R/S53C/Y60L", "replicates, log10 nM": "ND / ND / 4.21", "mean log10 Kd (nM)": "4.21", "empty controls": "0/9"}
{"changes": "D54H/K65I", "replicates, log10 nM": "ND / ND / ND", "mean log10 Kd (nM)": "ND", "empty controls": "0/9"}
{"changes": "S31Y/Y32N/S107E", "replicates, log10 nM": "ND / ND / ND", "mean log10 Kd (nM)": "ND", "empty controls": "3/9 (2.51)"}

As a blank, each scFv also met three strains without target: over library AAYL49, 15% of these pairings were detected, typically at 4.06 and seldom below 2.83. The control count says in how many pairings with the empty strains this scFv gave a signal, with their mean in brackets. Parent in this assay: reference entry 0.65, copy in this library 4.11 (one replicate of three).